Data on two compounds can be found in PubChem BioAssay AID2696 (Johns Hopkins Ion Channel Center, 2010).

By UniProt entry, the sequences of proteins in these tests, tags left out.
UniProt Q61143, whole entry: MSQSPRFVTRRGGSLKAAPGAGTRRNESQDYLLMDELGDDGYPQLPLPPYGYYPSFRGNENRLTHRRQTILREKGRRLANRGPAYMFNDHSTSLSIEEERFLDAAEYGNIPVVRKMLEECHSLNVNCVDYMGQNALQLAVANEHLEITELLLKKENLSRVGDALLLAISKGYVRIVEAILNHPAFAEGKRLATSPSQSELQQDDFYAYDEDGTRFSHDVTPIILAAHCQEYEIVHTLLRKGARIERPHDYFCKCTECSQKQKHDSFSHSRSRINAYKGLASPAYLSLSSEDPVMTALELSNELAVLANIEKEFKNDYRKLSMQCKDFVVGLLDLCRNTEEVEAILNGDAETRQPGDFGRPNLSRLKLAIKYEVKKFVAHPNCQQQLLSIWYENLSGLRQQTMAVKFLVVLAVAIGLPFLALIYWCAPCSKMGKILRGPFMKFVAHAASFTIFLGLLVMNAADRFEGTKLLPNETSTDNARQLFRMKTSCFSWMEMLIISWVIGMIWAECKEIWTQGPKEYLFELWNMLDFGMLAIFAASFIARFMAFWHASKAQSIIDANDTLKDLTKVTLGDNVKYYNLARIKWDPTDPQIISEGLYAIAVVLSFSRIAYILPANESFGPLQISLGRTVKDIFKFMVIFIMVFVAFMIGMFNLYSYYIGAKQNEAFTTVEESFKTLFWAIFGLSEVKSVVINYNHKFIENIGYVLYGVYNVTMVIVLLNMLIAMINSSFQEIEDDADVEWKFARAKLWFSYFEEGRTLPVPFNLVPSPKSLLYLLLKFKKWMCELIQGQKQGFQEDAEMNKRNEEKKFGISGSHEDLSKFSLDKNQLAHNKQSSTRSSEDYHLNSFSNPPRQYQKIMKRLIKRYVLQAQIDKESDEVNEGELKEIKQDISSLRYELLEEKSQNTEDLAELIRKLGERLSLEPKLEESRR

The structures appear in SMILES notation.

Broadly, the IC50 is the concentration at which inhibition is half-maximal.

This assay addresses Short transient receptor potential channel 6 (Mus musculus) (UniProt Q61143). Nature of the assay: TRPC6 inhibitor potency, dose response, cell-based, mouse TRPC6, HEK293, membrane potential (AID 2696). Particulars: TRPC6-expressing cells, fluorescence ratio calcium influx.

In the case of `CCC(CO)(C(=O)OC1CN2CCC1CC2)c1ccccc1` (configuration not stated), the half-maximal inhibitory concentration (IC50) is 7.08 µM. With `O=C(OC1CN2CCC1CC2)C1c2ccccc2Oc2ccccc21` (configuration not stated), the IC50 is 0.32 µM.
